Target: MNK1 (Homo sapiens (Human), UniProt Q9BUB5)
Test: MNK1 in vitro kinase assay (Assay 3), Z'-LYTE
Assay type: biochemical
Details: read-out: MNK1 % INH
Text: C. MNK1 In vitro Kinase Assay (Assay 3)
MNK1 Data can be obtained from the MNK1 Z′-LYTE® assay. The MNK1 Z′-LYTE® screening protocol and assay conditions are also described on www.invitrogen.com.
The assay is described as follows:
The Z′-LYTE® biochemical assay employs a fluorescence-based, coupled-enzyme format and is based on the differential sensitivity of phosphorylated and non-phosphorylated peptides to proteolytic cleavage. The peptide substrate is labeled with two fluorophores—one at each end—that make up a FRET pair.
In the primary reaction, the kinase transfers the gamma-phosphate of ATP to a single tyrosine, serine or threonine residue in a synthetic FRET-peptide. In the secondary reaction, a site-specific protease recognizes and cleaves non-phosphorylated FRET-peptides. Phosphorylation of FRET-peptides suppresses cleavage by the Development Reagent. […] A ratiometric method, which calculates the ratio (the Emission Ratio) of donor emission to acceptor emission after excitation of the donor fluorophore at 400 nm, is used to quantitate reaction progress, as shown in the equation below.
ASSAY SETUP: The inhibition of kinase activity of MNK1a was assessed using pre-activated GST-MNK1a. […]
9. Read on fluorescence plate reader and analyze the data […]
Correction for Background Fluorescence: FlSample-FlTCFl Ctl […]
Fl=Fluorescence Intensity […]

Protein sequences, listed by entry. Tags and fused reporters are not part of them. Chains listed by the source or under a name are the forms on record and can include a tag or linker.
UniProt Q9BUB5, other isoform, or with tags, fused parts or gaps: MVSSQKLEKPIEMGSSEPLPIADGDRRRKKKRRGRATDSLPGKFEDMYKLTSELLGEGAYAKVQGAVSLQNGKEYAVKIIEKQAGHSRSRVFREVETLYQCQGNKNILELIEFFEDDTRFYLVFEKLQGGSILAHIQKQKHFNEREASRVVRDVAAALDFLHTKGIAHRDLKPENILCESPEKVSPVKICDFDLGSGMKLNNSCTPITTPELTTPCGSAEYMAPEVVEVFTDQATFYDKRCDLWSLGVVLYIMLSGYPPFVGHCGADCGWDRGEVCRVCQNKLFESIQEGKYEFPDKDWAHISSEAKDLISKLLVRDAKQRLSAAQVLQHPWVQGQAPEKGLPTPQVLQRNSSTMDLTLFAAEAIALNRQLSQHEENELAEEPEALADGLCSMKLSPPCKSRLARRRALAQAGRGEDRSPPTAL

`Cc1cc(N=S(C)(C)=O)cc2ncnc(Nc3ccc(F)cc3O[C@H](C)C(=O)N3CCOCC3)c12` [Example 4.032] was tested, and the inhibition at 1 µM was 94%.

Reference: patent US9139577B2, “Sulfoximine substituted quinazolines for pharmaceutical compositions” (Boehringer Ingelheim International GmbH, priority 2013, dated 2015)
